{
  "sequences": {"note": "The chains behind the UniProt entries cited, without tags or fusion partners. Where a name states a change or a piece, a line headed by the entry shows the natural chain unless it says otherwise.", "UniProt Q02127": "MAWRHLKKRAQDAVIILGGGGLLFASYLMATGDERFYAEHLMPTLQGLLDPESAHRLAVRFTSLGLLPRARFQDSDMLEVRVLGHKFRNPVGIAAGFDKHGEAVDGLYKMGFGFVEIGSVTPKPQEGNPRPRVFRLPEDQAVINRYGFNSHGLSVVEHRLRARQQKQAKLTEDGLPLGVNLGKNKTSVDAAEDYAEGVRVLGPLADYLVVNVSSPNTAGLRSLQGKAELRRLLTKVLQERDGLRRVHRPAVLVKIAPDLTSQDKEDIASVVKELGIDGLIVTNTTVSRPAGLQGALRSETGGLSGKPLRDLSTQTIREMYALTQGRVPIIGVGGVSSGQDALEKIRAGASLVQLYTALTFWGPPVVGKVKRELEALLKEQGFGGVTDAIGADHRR"},
  "source": "patent US20250066290A1",
  "about": "“DHODH INHIBITORS CONTAINING A CARBOXYLIC ACID BIOISOSTERE” (IMMUNIC AG, priority 2021, published 2025)",
  "biological_target": "N-terminally truncated recombinant hDHODH enzyme (Homo sapiens, UniProt Q02127)",
  "assay": "biochemical",
  "note": "pIC50: −log10 of the molar value.",
  "data": [
    {"smiles": "[2H]C([2H])([2H])Oc1cccc(-c2cc(F)c(NC(=O)C3=C(C(=O)NOC)CSC3)c(F)c2)c1", "note": "[Example 6, N^3-(3,5-Difluoro-3′-(methoxy-d3)-[1,1′-biphenyl]-4-yl)-N^4-methoxy-2,5-dihydrothiophene-3,4-dicarboxamide]", "values": [
      {"measurement": "pIC50", "value": "> 7.00"}
    ]}
  ]
}
